Test results reported in ChEMBL document CHEMBL1155961, “Novel 4-aryl-pyrido[1,2-c]pyrimidines with dual SSRI and 5-HT1A activity: part 2” (Eur J Med Chem, 2009).

Experiments:
Mus musculus [1] = species on record: Mus musculus; conditions: Swiss albino, 0.1 mg/kg
Mus musculus [2] = species on record: Mus musculus; conditions: Swiss albino, 0.1 mg/kg; remark: listed apart in the source
Mus musculus [3] = species on record: Mus musculus; conditions: Swiss albino, 0.1 mg/kg; remark: listed apart in the source
Mus musculus [4] = species on record: Mus musculus; conditions: Swiss albino, 0.1 mg/kg; remark: listed apart in the source
Mus musculus [5] = species on record: Mus musculus; conditions: Swiss albino, 0.1 mg/kg; remark: listed apart in the source
Mus musculus [6] = species on record: Mus musculus; conditions: Swiss albino, 0.1 mg/kg; remark: listed apart in the source
Mus musculus [7] = species on record: Mus musculus; conditions: Swiss albino, 0.1 mg/kg; remark: listed apart in the source
Mus musculus [8] = species on record: Mus musculus; conditions: Swiss albino, 5 mg/kg
Mus musculus [9] = species on record: Mus musculus; conditions: Swiss albino, 5 mg/kg; remark: listed apart in the source
Mus musculus [10] = species on record: Mus musculus; conditions: Swiss albino, 5 mg/kg; remark: listed apart in the source
Mus musculus [11] = species on record: Mus musculus; conditions: Swiss albino, 5 mg/kg; remark: listed apart in the source
Mus musculus [12] = species on record: Mus musculus; conditions: Swiss albino, 5 mg/kg; remark: listed apart in the source
Mus musculus [13] = species on record: Mus musculus; conditions: Swiss albino, 0.1 mg/kg; remark: listed apart in the source

Row | Structure (SMILES) | deltaT (Mus musculus [1]) [°C] | deltaT (Mus musculus [2]) [°C] | deltaT (Mus musculus [3]) [°C] | deltaT (Mus musculus [4]) [°C] | deltaT (Mus musculus [5]) [°C] | deltaT (Mus musculus [6]) [°C] | deltaT (Mus musculus [7]) [°C] | deltaT (Mus musculus [8]) [°C] | deltaT (Mus musculus [9]) [°C] | deltaT (Mus musculus [10]) [°C] | deltaT (Mus musculus [11]) [°C] | deltaT (Mus musculus [12]) [°C] | deltaT (Mus musculus [13]) [°C]
1 | COc1ccccc1N1CCN(CCN(C(=O)C2CCCCC2)c2ccccn2)CC1 | 0.2 | 0.1 | 0.2 | 0.1 |  |  |  |  |  |  |  |  | 
2 | CCCN(CCC)C1CCc2cccc(O)c2C1 (stereo not drawn) [8-OH-DPAT] |  |  |  |  | -0.1 | -0.1 | -0.1 | -0.2 | -0.8 | -1.2 | -1.5 | -0.7 | -0.2
